Results: EP4095134A1, “POLYCYCLIC COMPOUNDS FOR THE TREATMENT OF NEUROLOGICAL INDICATIONS” (UCL Business Ltd, priority 2021, dated 2022)
pIC50: −log10 of the molar value.

Protein sequences, listed by entry. Tags and fused reporters are not part of them.
UniProt P47900, whole entry: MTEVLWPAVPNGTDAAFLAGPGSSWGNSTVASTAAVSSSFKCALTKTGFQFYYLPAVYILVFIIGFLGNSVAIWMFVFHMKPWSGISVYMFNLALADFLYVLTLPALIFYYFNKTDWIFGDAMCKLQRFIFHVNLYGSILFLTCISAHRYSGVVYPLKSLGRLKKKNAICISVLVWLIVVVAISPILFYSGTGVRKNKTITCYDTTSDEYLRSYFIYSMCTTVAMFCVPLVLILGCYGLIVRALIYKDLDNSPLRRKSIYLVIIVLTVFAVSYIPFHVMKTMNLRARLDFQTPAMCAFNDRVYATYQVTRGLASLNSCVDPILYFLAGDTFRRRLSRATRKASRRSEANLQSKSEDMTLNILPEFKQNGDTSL

Target: P2Y1 receptor (Homo sapiens, UniProt P47900)
Test: P2Y1 IP1 accumulation HTRF assay, antagonism of agonist MRS2365 in stably transfected cells
Conditions: single enantiomer; 5nM MRS2365; values rounded to nearest whole number

| Structure (SMILES) | pIC50 |
| --- | --- |
| O=C(Nc1ccc(C2(C(F)(F)F)CCO2)cc1)Nc1cccnc1Oc1ccccc1C1(C(F)(F)F)CCO1 (single isomer, unassigned) [S106] | 6.99 |
| O=C(Nc1ccc(C2(C(F)(F)F)CCO2)cc1)Nc1cccnc1Oc1ccccc1C1(C(F)(F)F)CCO1 (single isomer, unassigned) [S103] | 7.23 |
